The test concerns the target Cyclooxygenase (Homo sapiens, UniProt P35354+P23219). Nature of the test: The compound was tested for inhibitory activity against Prostaglandin G/H synthase in human polymorphonuclear leukocytes[PMNS]. Type of test: cell-based.

Sequences of proteins named here, by UniProt entry; tags and fusion partners are left off. A change or cut given only in a name is not applied to a line headed by its entry.
UniProt P35354: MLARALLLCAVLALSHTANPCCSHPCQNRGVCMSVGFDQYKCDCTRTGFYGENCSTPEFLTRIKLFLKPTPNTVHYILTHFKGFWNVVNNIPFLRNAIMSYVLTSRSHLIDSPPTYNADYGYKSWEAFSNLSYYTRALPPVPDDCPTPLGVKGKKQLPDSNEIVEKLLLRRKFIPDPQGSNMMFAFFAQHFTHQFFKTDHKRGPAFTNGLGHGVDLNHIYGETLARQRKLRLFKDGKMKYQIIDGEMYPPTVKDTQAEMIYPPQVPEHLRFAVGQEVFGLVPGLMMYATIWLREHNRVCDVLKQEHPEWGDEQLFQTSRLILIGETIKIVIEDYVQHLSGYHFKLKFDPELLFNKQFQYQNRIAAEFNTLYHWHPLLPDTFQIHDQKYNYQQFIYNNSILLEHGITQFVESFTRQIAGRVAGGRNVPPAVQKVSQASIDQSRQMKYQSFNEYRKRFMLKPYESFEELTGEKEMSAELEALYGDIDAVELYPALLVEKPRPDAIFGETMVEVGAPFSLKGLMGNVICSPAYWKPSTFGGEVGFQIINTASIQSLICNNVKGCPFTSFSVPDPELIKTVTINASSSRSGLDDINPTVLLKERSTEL
UniProt P23219: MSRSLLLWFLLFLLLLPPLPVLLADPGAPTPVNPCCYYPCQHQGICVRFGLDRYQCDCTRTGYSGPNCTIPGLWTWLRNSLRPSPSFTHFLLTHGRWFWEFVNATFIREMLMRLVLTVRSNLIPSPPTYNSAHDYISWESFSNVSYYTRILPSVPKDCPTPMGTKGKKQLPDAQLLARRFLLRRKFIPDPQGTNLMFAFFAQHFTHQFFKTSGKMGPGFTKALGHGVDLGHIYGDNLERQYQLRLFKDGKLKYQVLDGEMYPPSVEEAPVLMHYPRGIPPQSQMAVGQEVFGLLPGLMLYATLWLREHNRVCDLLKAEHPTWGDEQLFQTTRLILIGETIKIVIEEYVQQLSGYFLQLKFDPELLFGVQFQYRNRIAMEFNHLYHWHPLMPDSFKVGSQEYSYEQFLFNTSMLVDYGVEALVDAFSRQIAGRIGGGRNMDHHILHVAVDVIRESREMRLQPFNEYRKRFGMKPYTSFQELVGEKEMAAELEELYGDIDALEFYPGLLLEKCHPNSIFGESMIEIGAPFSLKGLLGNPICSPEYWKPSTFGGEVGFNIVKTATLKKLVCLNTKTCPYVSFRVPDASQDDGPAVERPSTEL

IC50 data for one compound are collected here from ChEMBL document CHEMBL1125472, “5-lipoxygenase: properties, pharmacology, and the quinolinyl(bridged)aryl class of inhibitors” (J Med Chem, 1992).

`NC1=NN(c2cccc(C(F)(F)F)c2)CC1` [BW-755C] gave an IC50 of 12 µM.
